Measured values reported in US6476187B1, “Methods and reagents for discovering and using mammalian melanocortin receptor agonists and antagonists to modulate feeding behavior in animals” (Oregon Health & Sciences University, priority 1992, dated 2002).

Amino acid sequences for entries named in this document (tags omitted). A change or cut given only in a name is not applied to a line headed by its entry.
UniProt P32244: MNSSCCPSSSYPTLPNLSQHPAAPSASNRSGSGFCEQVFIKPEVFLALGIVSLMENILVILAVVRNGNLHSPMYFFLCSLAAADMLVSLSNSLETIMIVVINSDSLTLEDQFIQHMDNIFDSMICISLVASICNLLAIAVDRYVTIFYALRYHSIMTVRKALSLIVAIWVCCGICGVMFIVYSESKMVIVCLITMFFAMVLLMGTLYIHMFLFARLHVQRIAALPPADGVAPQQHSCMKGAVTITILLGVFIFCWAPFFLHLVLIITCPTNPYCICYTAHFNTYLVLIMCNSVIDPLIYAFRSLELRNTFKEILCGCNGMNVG

Target: T1, rat MC3-R (Rattus norvegicus, UniProt P32244)
T1 construct: The entire coding region of the MC-3 receptor cDNA insert; expressed in transfected cells; host or cells: human 293 cells, pcDNA/neo I, G418-selected
Experiment: intracellular cAMP production in 293 cells expressing MC3-R
Assay type: cell-based
Conditions: 1 h at 37° C.
Description: cAMP production assays as described above were also used to analyze expression of MC3-R in cells transfected with the expression vectors described herein as follows. Cells (˜5×10^6) were plated in 6-well dishes, washed once with DMEM containing 1% bovine serum albumin (BSA) and 0.5 mM IBMX (a phosphodiesterase inhibitor), then incubated for 1 h at 37° C. with varying concentrations of the melanotropic peptides αMSH, γ3MSH, γMSH, the MSH peptide analogues Nle^4-D-Phe^7-αMSH (NDP-MSH), ACTH4-10 and ACTH1-39. Following hormone treatment, the cells were washed twice with phosphate buffered saline and intracellular cAMP extracted by lysing the cells with 1 mL of 60% ethanol. Intracellular cAMP concentrations were determined using an assay which measures the ability of cAMP to displace [8-^3H] cAMP from a high affinity cAMP binding protein (see Gilman, 1979, Proc. Natl. Acad. Sci. USA 67: 305-312).
The abscissa indicates the concentration of each hormone and the ordinate indicates the percentage of basal intracellular cAMP concentration achieved by each treatment. […] None of the peptides tested induced any change in intracellular cAMP in cells containing the vector alone. Cells expressing rat MC3-R responded strongly to every melanotropic peptide containing the MSH code sequence His-Phe-Arg-Trp, with up to a 60-fold elevation of intracellular cAMP levels.

## α-melanocyte stimulating hormone [α-MSH]
  EC50: 4 nM
